Consider two compounds from patent EP0336356A2, “Derivatives of tryptophan as CCK antagonists” (ABBOTT LABORATORIES, priority 1988, dated 1989).

Protein sequences, listed by entry. Tags and fused reporters are not part of them.
UniProt Q63931, whole entry: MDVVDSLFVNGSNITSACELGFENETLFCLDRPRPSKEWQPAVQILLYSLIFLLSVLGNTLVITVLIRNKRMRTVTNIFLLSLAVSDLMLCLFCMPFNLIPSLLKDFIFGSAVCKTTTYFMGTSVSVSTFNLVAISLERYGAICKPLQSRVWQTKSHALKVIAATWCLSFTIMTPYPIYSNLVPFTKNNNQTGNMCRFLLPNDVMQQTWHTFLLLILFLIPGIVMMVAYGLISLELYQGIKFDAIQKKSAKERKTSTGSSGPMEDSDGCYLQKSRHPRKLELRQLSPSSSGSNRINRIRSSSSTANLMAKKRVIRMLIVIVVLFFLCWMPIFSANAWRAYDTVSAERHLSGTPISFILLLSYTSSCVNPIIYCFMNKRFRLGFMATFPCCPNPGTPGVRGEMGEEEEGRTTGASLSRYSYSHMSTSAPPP

This test concerns the target T1, CCK receptors (Cavia porcellus, UniProt Q63931).
T1 construct: cortex and pancreas were removed and rinsed with ice-cold saline; from tissue; host or cells: guinea pig pancreas membranes
Put plainly: [125I]BH-CCK8 radioligand binding, guinea pig pancreatic membranes. The following applies: 37°C for 30 min, read-out: IC₅₀ (nM) [¹²⁵I]-BH-CCK₈ Pancreas.

As to `CCCCCN(CCCCC)C(=O)C(Cc1c[nH]c2ccc(OCc3ccccc3)cc12)NC(=O)c1cnc2ccccc2c1` (racemic) [Example 53, N-(3′-Quinolylcarbonyl)-R,S-5-benzyloxytryptophan-di-n-pentylamide], the IC50 stood at 67 nM. As for `O=C(N[C@H](Cc1c[nH]c2ccccc12)C(=O)NCc1ccccc1)c1cnc2ccccc2c1` [Example 7, N-(3′-Quinolylcarbonyl)-R-Tryptophan-benzylamide], the IC50 was 350 nM.
